Ab-14 light chain CDR variants: yeast mating affinities

Antigen: PDVDLGDISGINAS, a 14-residue peptide of the SARS-CoV-2 spike HR2 region.

Parent scFv Ab-14: VH joined to VL by the linker GGGGSGGGGSGGGGS. Changes lie in the light chain CDRs alone.
VH: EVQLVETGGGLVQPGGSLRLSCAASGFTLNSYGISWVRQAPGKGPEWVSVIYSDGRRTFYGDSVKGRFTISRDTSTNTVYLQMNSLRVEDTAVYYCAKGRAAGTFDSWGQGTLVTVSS
VL: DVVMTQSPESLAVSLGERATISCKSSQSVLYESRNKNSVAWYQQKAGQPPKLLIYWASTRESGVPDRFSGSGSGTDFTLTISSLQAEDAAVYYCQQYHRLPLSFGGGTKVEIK

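Variants in AAYL50 differ from the parent at up to three CDR positions; double and triple changes were sampled at random. The assay is AlphaSeq: two haploid yeast populations carry antibody and antigen on their surface. Mating (16 h, 30 °C) was followed by selection of diploids and sequencing of their barcodes. Scores were corrected for input abundance and mapped to Kd with protein pairs of known affinity run in the same pool. There are three technical replicates.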

The parent's light chain CDRs are KSSQSVLYESRNKNSVA, WASTRES, QQYHRLPLS; each variant's own CDRs replace them letter for letter. Numbers give log10(Kd / nM), so 0 is 1 nM and 3 is 1 µM. Smaller is tighter. A pair that was not seen in that replicate is written "n.d."; this usually means weak binding, but a binder can also be missed. Nonspecific signal, from three strains lacking the peptide, appeared in 18% of pairings of library AAYL50, centred on 4.19 (5% of these signals below 2.99); values are not corrected for it. The control count says in how many pairings with the empty strains this scFv gave a signal, with their mean in brackets.

| # | CDR-L1 | CDR-L2 | CDR-L3 | replicates, log10 nM | signal with controls |
|---|---|---|---|---|---|
| 1 | KSSQSVLYESRNMNSVA | WASTRES | QQYHKLPVS | 2.99 3.98 1.95 | 1/9 (3.90) |
| 2 | KFSQSVLYESRNKNSVA | WASTFES | QQYHRTPLS | 4.20 n.d. n.d. | 0/9 |
| 3 | KSSQSVLYTSRNKNSVD | WASDRES | QQYHRLPLS | n.d. 4.49 n.d. | 4/9 (3.99) |
| 4 | KSSQSLLMESRNKNSVA | WASTRES | QQYHRMPLS | 0.27 0.61 0.50 | 1/9 (4.88) |
| 5 | KSSQSVLCESRNKNSVA | WASTRES | QQYHRYPLF | 1.34 1.43 1.58 | 1/9 (4.15) |
| 6 | VSAQSVLYESRNKNSVA | WASTRTS | QQYHRLPLS | 2.79 2.38 2.71 | 0/9 |
| 7 | ASSQSVLYESRNKNSVA | WMSTRES | QQYHRLPLN | n.d. n.d. n.d. | 0/9 |
| 8 | KSSQSDLYTSRNKNSVA | WASTSES | QQYHRLPLS | 4.29 4.00 3.15 | 5/9 (4.51) |
| 9 | KRTQSVLYESRNKNSVA | WASTRES | QQYHRLPLS | n.d. n.d. n.d. | 1/9 (4.51) |
| 10 | KSSQSVFYERTNKNSVA | WASTRES | QQYHRLPLS | 0.70 0.69 0.65 | 4/9 (4.90) |
| 11 | KSSQSVLYESRNKWIVA | WAQTRES | QQYHRLPLS | n.d. 4.99 n.d. | 2/9 (4.93) |
| 12 | KDSQSVLYESRNKNNVA | WASTDES | QQYHRLPLS | n.d. n.d. n.d. | 1/9 (3.61) |
| 13 | KGSQSVLYESRNKNSVA | WRSTRES | QQYHRDPLS | n.d. n.d. n.d. | 1/9 (4.06) |
| 14 | KSSQSVLYESRNKISGA | WASTRPS | QQYHRLPLS | n.d. n.d. n.d. | 0/9 |
| 15 | KSSQQVLYESRNKNSVA | WASTTES | QYYHRLPLS | n.d. 4.36 n.d. | 4/9 (3.76) |
| 16 | KSSQSVLLASRNKNSVA | LASTRES | QQYHRLPLS | 1.20 1.45 1.54 | 1/9 (3.24) |
| 17 | KSSQSVLHESRNKNSVA | WASTRES | QQYHRIPMS | 1.41 1.49 1.18 | 2/9 (3.84) |
| 18 | KSSQSVLYESRNHASVA | EASTRES | QQYHRLPLS | 0.03 0.28 0.01 | 3/9 (5.50) |
| 19 | KSSQSVLYESRNKGSVA | WASTRES | FQYHRLHLS | n.d. n.d. n.d. | 0/9 |
| 20 | KSSQSVLYEARNKNSVA | WASTRES | PLYHRLPLS | 2.47 4.17 2.61 | 2/9 (4.86) |
| 21 | KSSQSVEYESTNKNSVA | WASTRES | QQDHRLPLS | 0.02 0.51 0.20 | 0/9 |
| 22 | KSSQSVIYESRNKNIGA | WASTRES | QQYHRLPLS | n.d. n.d. n.d. | 3/9 (4.73) |
| 23 | KSSHSVMYESRNKNSVE | WASTRES | QQYHRLPLS | n.d. n.d. n.d. | 0/9 |
| 24 | KSSQEVLYESRNKNNFA | WASTRES | QQYHRLPLS | 3.27 3.62 2.56 | 0/9 |
| 25 | KSSQSVLLESFNKNSVA | WASTRES | QQYHRLPLS | n.d. n.d. n.d. | 0/9 |
| 26 | KKSQSVLYESRVKNEVA | WASTRES | QQYHRLPLS | 2.02 1.71 2.81 | 2/9 (3.62) |
| 27 | KSSQSVYYESRNKNSVC | WASTRES | QQYHRLPLS | 2.19 1.99 2.25 | 3/9 (3.73) |
| 28 | KSSQSVLYESRIRNSVA | WASTRES | QQYHRLPLS | 1.87 1.69 1.77 | 7/9 (5.01) |
| 29 | KSSDSVLYNSRNFNSVA | WASTRES | QQYHRLPLS | 0.81 0.91 0.69 | 0/9 |
| 30 | NSSASVLYESRPKNSVA | WASTRES | QQYHRLPLS | 3.24 2.58 n.d. | 1/9 (2.52) |
| 31 | KSSQSVLYESWNKNSVA | HASTRES | QQYHRLILS | 0.07 0.23 0.02 | 1/9 (4.29) |
| 32 | NSSQSVLYESRNYNSVA | WASTRES | QQCHRLPLS | n.d. n.d. 4.88 | 1/9 (3.47) |
| 33 | KSSQSVLYESRNKNSVA | WRSTRES | LQYARLPLS | 1.99 n.d. n.d. | 0/9 |
| 34 | KSSQSVPYESRFKNSVA | WASTRES | QQYIRLPLS | n.d. 2.93 n.d. | 0/9 |
| 35 | ISSQSVLYESRNKNSHA | WASTRES | QQCHRLPLS | 2.92 n.d. n.d. | 1/9 (4.32) |
| 36 | KSSQSVLYESKNKNSIA | WASTRES | QQYHRLSLS | 2.81 2.80 n.d. | 1/9 (2.80) |
| 37 | KSSQSVLYESRNKNSTA | WASTRES | QNYHQLPLS | 3.40 3.21 3.72 | 4/9 (4.46) |
| 38 | KSSQSVSYESRSKNSVA | WACTRES | QQYHRLPLS | 2.85 2.47 2.62 | 3/9 (4.58) |
| 39 | KSSQSYLYESRNKNSVA | WASTHES | QQYHRDPLS | n.d. n.d. n.d. | 0/9 |
| 40 | KSSYSVLYESRNKNSVA | WASNLES | QQYHRLPLS | n.d. n.d. n.d. | 0/9 |
| 41 | KSSQSVLYESRSKNSVA | WASTFES | QQYHRLPLS | n.d. n.d. n.d. | 0/9 |
| 42 | KSSQVVLYESRDKNSVA | WASTRES | QQHHRLPLS | 5.40 n.d. n.d. | 0/9 |
| 43 | KSSQSVLYESRNINSVA | WASCRES | QQYHRLPLK | 2.27 2.54 2.46 | 0/9 |
| 44 | KSSQSVLYESRNKNSVA | WASTRES | QQQHRLPLS | 5.30 4.08 n.d. | 0/9 |
| 45 | KSSQSVLYSSRGKNSVA | WASTRRS | QQYHRLPLS | n.d. 4.14 n.d. | 3/9 (3.79) |
| 46 | KSSQEVLYESRNKNSVF | WASTRES | QQYHRIPLS | n.d. n.d. n.d. | 0/9 |
| 47 | KSSQSVLYESRNKNSVC | WASTRDS | QQYKRLPLS | n.d. n.d. n.d. | 2/9 (4.07) |

The closing 6 entries, repeated:

{"CDR-L1": "KSSQVVLYESRDKNSVA", "CDR-L2": "WASTRES", "CDR-L3": "QQHHRLPLS", "replicates, log10 nM": "5.40 n.d. n.d.", "signal with controls": "0/9"}
{"CDR-L1": "KSSQSVLYESRNINSVA", "CDR-L2": "WASCRES", "CDR-L3": "QQYHRLPLK", "replicates, log10 nM": "2.27 2.54 2.46", "signal with controls": "0/9"}
{"CDR-L1": "KSSQSVLYESRNKNSVA", "CDR-L2": "WASTRES", "CDR-L3": "QQQHRLPLS", "replicates, log10 nM": "5.30 4.08 n.d.", "signal with controls": "0/9"}
{"CDR-L1": "KSSQSVLYSSRGKNSVA", "CDR-L2": "WASTRRS", "CDR-L3": "QQYHRLPLS", "replicates, log10 nM": "n.d. 4.14 n.d.", "signal with controls": "3/9 (3.79)"}
{"CDR-L1": "KSSQEVLYESRNKNSVF", "CDR-L2": "WASTRES", "CDR-L3": "QQYHRIPLS", "replicates, log10 nM": "n.d. n.d. n.d.", "signal with controls": "0/9"}
{"CDR-L1": "KSSQSVLYESRNKNSVC", "CDR-L2": "WASTRDS", "CDR-L3": "QQYKRLPLS", "replicates, log10 nM": "n.d. n.d. n.d.", "signal with controls": "2/9 (4.07)"}

Data: MIT Lincoln Laboratory AlphaSeq set, Engelhart et al. 2022, doi:10.1038/s41597-022-01779-4, as distributed in FLAb.